ChEMBL document CHEMBL1833971, “Towards rational design of cannabinoid receptor 1 (CB1) antagonists for peripheral selectivity” (Bioorg Med Chem Lett, 2011)

Amino acid sequences for entries named in this document (tags omitted).
UniProt P21554, whole entry: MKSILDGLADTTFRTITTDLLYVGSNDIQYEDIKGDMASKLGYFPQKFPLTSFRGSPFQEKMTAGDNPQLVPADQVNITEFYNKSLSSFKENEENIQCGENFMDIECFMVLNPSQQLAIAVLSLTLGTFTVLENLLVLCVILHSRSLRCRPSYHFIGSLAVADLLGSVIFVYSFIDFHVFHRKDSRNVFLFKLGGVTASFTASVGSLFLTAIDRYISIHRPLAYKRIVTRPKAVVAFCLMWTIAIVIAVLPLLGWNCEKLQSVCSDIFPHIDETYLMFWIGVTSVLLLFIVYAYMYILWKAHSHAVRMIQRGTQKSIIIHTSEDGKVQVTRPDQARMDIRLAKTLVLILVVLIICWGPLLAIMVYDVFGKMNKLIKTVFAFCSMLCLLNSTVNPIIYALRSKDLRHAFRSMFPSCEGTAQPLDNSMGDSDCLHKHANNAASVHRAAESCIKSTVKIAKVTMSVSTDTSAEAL

Molecular target: Cannabinoid receptor 1 (Homo sapiens, UniProt P21554)
Test: Antagonist activity at human CB1 receptor transfected in CHO-K1 cells co-expressing G-alpha-q16 protein assessed as inhibition of G-alpha-q16 protein-mediated intracellular calcium mobilization
Format: functional, cell-based
Procedure, shortened: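 Fluorescent intracellular calcium read-out in CHO-K1 cells expressing CB1 coupled via Gαq16. Cells pre-incubated with test agent, then a CP55940 concentration-response was run. Antagonism seen as a rightward shift of the agonist curve. Apparent dissociation constant Ke was derived from agonist EC50 with versus without antagonist.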

## Cc1c(C(=O)NCC2CCC(CNS(C)(=O)=O)CC2)nn(-c2ccc(Cl)cc2Cl)c1-c1ccc(Cl)cc1 (mixture of isomers)
  Ke: 0.113 µM
